The source of these data is US11691963B2, “6-heteroaryloxy benzimidazoles and azabenzimidazoles as JAK2 inhibitors” (Ajax Therapeutics, Inc., priority 2020, dated 2023).

Amino acid sequences for entries named in this document (tags omitted). Residues count along the entry.
UniProt O60674, 849-1124 Y1007F/Y1008F: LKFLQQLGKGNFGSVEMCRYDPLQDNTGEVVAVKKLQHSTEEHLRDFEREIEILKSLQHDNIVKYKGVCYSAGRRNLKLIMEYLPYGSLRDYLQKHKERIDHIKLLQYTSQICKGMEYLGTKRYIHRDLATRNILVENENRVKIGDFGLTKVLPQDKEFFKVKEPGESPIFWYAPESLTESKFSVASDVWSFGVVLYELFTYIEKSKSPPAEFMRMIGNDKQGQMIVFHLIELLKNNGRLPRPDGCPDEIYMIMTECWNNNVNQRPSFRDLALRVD

This experiment has as its target JAK2 (JH1domain-catalytic, Y1007F,Y1008F) kinase (Homo sapiens (Human), UniProt O60674, Y1007F/Y1008F). The note with it: read-out: JAK2 Kd; JAK2 JH1 domain-catalytic, Y1007F,Y1008F; qPCR readout.

A value given as a limit tells only on which side of the number the result lay.

As for `CC(=O)Nc1cc(Oc2cnc3nc(Nc4cc(C(C)(C)C)n([C@H]5CCN(CCF)C5)n4)n(C)c3c2Cl)ccn1` [Example I-185, (S)—N-(4-((2-((5-(tert-butyl)-1-(1-(2-fluoroethyl)pyrrolidin-3-yl)-1H-pyrazol-3-yl)amino)-7-chloro-1-methyl-1H-imidazo[4,5-b]pyridin-6-yl)oxy)pyridin-2-yl)acetamide], the dissociation constant Kd was below 10 nM.
For `COCCn1cc(C(F)(F)F)cc(Nc2nc3ccc(Oc4ccnc(NC(C)=O)c4)c(C#N)c3n2C)c1=O` [Example I-53, N-(4-((7-cyano-2-((1-(2-methoxyethyl)-2-oxo-5-(trifluoromethyl)-1,2-dihydropyridin-3-yl)amino)-1-methyl-1H-benzo[d]imidazol-6-yl)oxy)pyridin-2-yl)acetamide] the value was below 10 nM; for `CC(=O)Nc1cc(Oc2cnc3nc(Nc4cc(C(C)(C)C)n([C@@H]5CCOC5)n4)n(C)c3c2Cl)ccn1` [Example I-141, (R)—N-(4-((2-((5-(tert-butyl)-1-(tetrahydrofuran-3-yl)-1H-pyrazol-3-yl)amino)-7-chloro-1-methyl-1H-imidazo[4,5-b]pyridin-6-yl)oxy)pyridin-2-yl)acetamide], below 10 nM.
As to `CC(=O)Nc1cc(Oc2ccc3nc(Nc4cc([C@H]5CC(=O)N(C)C5)cc(C(F)(F)F)c4)n(C)c3c2)ccn1` (mixture of isomers) [Example I-12-a, (R)—N-(4-((1-methyl-2-((3-(1-methyl-5-oxopyrrolidin-3-yl)-5-(trifluoromethyl)phenyl)amino)-1H-benzo[d]imidazol-6-yl)oxy)pyridin-2-yl)acetamide and (S)—N-(4-((1-methyl-2-((3-(1-methyl-5-oxopyrrolidin-3-yl)-5-(trifluoromethyl)phenyl)amino)-1H-benzo[d]imidazol-6-yl)oxy)pyridin-2-yl)acetamide], the dissociation constant Kd is 10 to 50 nM.
Next, `CC(=O)Nc1cc(Oc2cnc3nc(Nc4nc([C@H]5CCOC5)c(C(C)(C)C)s4)n(C)c3c2)ccn1` (single isomer, unassigned) [Example I-187-b]: below 10 nM; `Cn1c(Nc2nn([C@H]3CCOC3)c(C(C)(C)C)c2F)nc2ncc(Oc3ccnc(NC(=O)C4CC4)c3)cc21` [Example I-152, (S)—N-(4-((2-((5-(tert-butyl)-4-fluoro-1-(tetrahydrofuran-3-yl)-1H-pyrazol-3-yl)amino)-1-methyl-1H-imidazo[4,5-b]pyridin-6-yl)oxy)pyridin-2-yl)cyclopropanecarboxamide]: below 10 nM.
Consider `CC(=O)Nc1cc(Oc2cnc3nc(Nc4cc(C(C)(C)C#N)n(C5CC6(COC6)C5)n4)n(C)c3c2Cl)ccn1` [Example I-192, N-(4-((7-chloro-2-((5-(2-cyanopropan-2-yl)-1-(2-oxaspiro[3.3]heptan-6-yl)-1H-pyrazol-3-yl)amino)-1-methyl-1H-imidazo[4,5-b]pyridin-6-yl)oxy)pyridin-2-yl)acetamide], for which the Kd was below 10 nM.
As for `COc1c(Oc2ccnc(NC(=O)C3CC3)c2)cnc2nc(Nc3cc(C(C)(C)C)n([C@@H]4CCN(CCF)C4)n3)n(C)c12` [Example I-184, (R)—N-(4-((2-((5-(tert-butyl)-1-(1-(2-fluoroethyl)pyrrolidin-3-yl)-1H-pyrazol-3-yl)amino)-7-methoxy-1-methyl-1H-imidazo[4,5-b]pyridin-6-yl)oxy)pyridin-2-yl)cyclopropanecarboxamide], the dissociation constant (Kd) was below 10 nM.
Next, `CC(=O)Nc1cc(Oc2cnc3nc(Nc4cc(C(C)(C)C)n([C@H]5CCOC5)n4)n(C)c3c2C(F)F)ccn1` [Example I-153, (S)—N-(4-((2-((5-(tert-butyl)-1-(tetrahydrofuran-3-yl)-1H-pyrazol-3-yl)amino)-7-(difluoromethyl)-1-methyl-1H-imidazo[4,5-b]pyridin-6-yl)oxy)pyridin-2-yl)acetamide]: below 10 nM.
For `COc1c(Oc2ccnc(NC(=O)C3CC3)c2)cnc2nc(Nc3cc(C(F)(F)F)cn(C)c3=O)n(C)c12` [Example I-201, N-(4-((7-methoxy-1-methyl-2-((1-methyl-2-oxo-5-(trifluoromethyl)-1,2-dihydropyridin-3-yl)amino)-1H-imidazo[4,5-b]pyridin-6-yl)oxy)pyridin-2-yl)cyclopropanecarboxamide] the value was below 10 nM; for `CC(=O)Nc1cc(Oc2cnc3nc(Nc4cc(C(C)(C)C)n([C@@H]5CCOC5)n4)n(C)c3c2C(F)F)ccn1` [Example I-147, (R)—N-(4-((2-((5-(tert-butyl)-1-(tetrahydrofuran-3-yl)-1H-pyrazol-3-yl)amino)-7-(difluoromethyl)-1-methyl-1H-imidazo[4,5-b]pyridin-6-yl)oxy)pyridin-2-yl)acetamide], below 10 nM.
On to `CC(=O)Nc1cc(Oc2ccc3nc(Nc4cc(C5CC5)cn(C)c4=O)n(C)c3n2)ccn1` [Example I-63, N-(4-((2-((5-cyclopropyl-1-methyl-2-oxo-1,2-dihydropyridin-3-yl)amino)-3-methyl-3H-imidazo[4,5-b]pyridin-5-yl)oxy)pyridin-2-yl)acetamide], for which the Kd was below 10 nM.
On to `CC(=O)Nc1cc(Oc2ccc3nc(Nc4cc(C(C)(C)C)on4)n(C)c3c2C#N)ccn1` [Example I-3, N-(4-((2-((5-(tert-butyl)isoxazol-3-yl)amino)-7-cyano-1-methyl-1H-benzo[d]imidazol-6-yl)oxy)pyridin-2-yl)acetamide], for which the dissociation constant (Kd) was below 10 nM.
Next, `CC(=O)Nc1cc(Oc2cnc3nc(Nc4cc(C(C)(C)C)n(C5CC6(COC6)C5)n4)n(C)c3c2Cl)ccn1` [Example I-193, N-(4-((2-((5-(tert-butyl)-1-(2-oxaspiro[3.3]heptan-6-yl)-1H-pyrazol-3-yl)amino)-7-chloro-1-methyl-1H-imidazo[4,5-b]pyridin-6-yl)oxy)pyridin-2-yl)acetamide]: below 10 nM; `COc1c(Oc2ccnc(NC(C)=O)c2)cnc2nc(Nc3cc(C(C)(C)C)n([C@H]4CCOC45CC5)n3)n(C)c12` (single isomer, unassigned) [Example I-190-b]: below 10 nM; `COCCn1cc(C2CC2)cc(Nc2nc3ccc(Oc4ccnc(NC(C)=O)c4)nc3n2C)c1=O` [Example I-72, N-(4-((2-((5-cyclopropyl-1-(2-methoxyethyl)-2-oxo-1,2-dihydropyridin-3-yl)amino)-3-methyl-3H-imidazo[4,5-b]pyridin-5-yl)oxy)pyridin-2-yl)acetamide]: below 10 nM.
Next, `CC(=O)Nc1cc(Oc2ccc3nc(Nc4cccc(N5CCOCC5)n4)n(C)c3c2)ccn1` [Example I-13, N-(4-((1-methyl-2-((6-morpholinopyridin-2-yl)amino)-1H-benzo[d]imidazol-6-yl)oxy)pyridin-2-yl)acetamide]: above 5000 nM.
Regarding `CCc1c(Oc2ccnc(NC(C)=O)c2)cnc2nc(Nc3cc(C(C)(C)C#N)n([C@@H]4CCOC4)n3)n(C)c12` [Example I-158, (R)—N-(4-((2-((5-(2-cyanopropan-2-yl)-1-(tetrahydrofuran-3-yl)-1H-pyrazol-3-yl)amino)-7-ethyl-1-methyl-1H-imidazo[4,5-b]pyridin-6-yl)oxy)pyridin-2-yl)acetamide], the Kd is below 10 nM.
Turning to `CC(=O)Nc1cc(Oc2cnc3nc(Nc4cc(C(F)(F)F)cn(CCCN5CCOCC5)c4=O)n(C)c3c2Cl)ccn1` [Example I-204, N-(4-((7-chloro-1-methyl-2-((1-(3-morpholinopropyl)-2-oxo-5-(trifluoromethyl)-1,2-dihydropyridin-3-yl)amino)-1H-imidazo[4,5-b]pyridin-6-yl)oxy)pyridin-2-yl)acetamide], the Kd is below 10 nM.
For `CC(=O)Nc1cc(Oc2cnc3nc(Nc4cc(C(C)(C)C)n(C[C@@H]5CCOC5)n4)n(C)c3c2)ccn1` (single isomer, unassigned) [Example I-112-a] the value was below 10 nM.
As to `CC(=O)Nc1cc(Oc2cnc3nc(Nc4cc(C(C)(C)C#N)n(C5CC6(COC6)C5)n4)n(C)c3c2C(F)F)ccn1` [Example I-194, N-(4-((2-((5-(2-cyanopropan-2-yl)-1-(2-oxaspiro[3.3]heptan-6-yl)-1H-pyrazol-3-yl)amino)-7-(difluoromethyl)-1-methyl-1H-imidazo[4,5-b]pyridin-6-yl)oxy)pyridin-2-yl)acetamide], the dissociation constant Kd was below 10 nM.
With `Cn1c(Nc2cc(C(F)(F)C(F)(F)F)n([C@@H]3CCOC3)n2)nc2ncc(Oc3ccnc(NC(=O)C4CC4)c3)cc21` [Example I-133, (R)—N-(4-((1-methyl-2-((5-(perfluoroethyl)-1-(tetrahydrofuran-3-yl)-1H-pyrazol-3-yl)amino)-1H-imidazo[4,5-b]pyridin-6-yl)oxy)pyridin-2-yl)cyclopropanecarboxamide], the Kd was below 10 nM.
Next, `CC(=O)Nc1cc(Oc2ccc3nc(Nc4cc(C5CC5)cn(C)c4=O)n(C)c3c2C#N)ccn1` [Example I-62, N-(4-((7-cyano-2-((5-cyclopropyl-1-methyl-2-oxo-1,2-dihydropyridin-3-yl)amino)-1-methyl-1H-benzo[d]imidazol-6-yl)oxy)pyridin-2-yl)acetamide]: below 10 nM; `COc1c(Oc2ccnc(NC(=O)C3CC3)c2)cnc2nc(Nc3cc(C(F)(F)C(F)(F)F)n([C@H]4CCOC4)n3)n(C)c12` [Example I-178, (S)—N-(4-((7-methoxy-1-methyl-2-((5-(perfluoroethyl)-1-(tetrahydrofuran-3-yl)-1H-pyrazol-3-yl)amino)-1H-imidazo[4,5-b]pyridin-6-yl)oxy)pyridin-2-yl)cyclopropanecarboxamide]: below 10 nM; `CC(=O)Nc1cc(Oc2ccc3nc(Nc4cc(C(C)(C)C)n([C@H]5CCOC5)n4)n(C)c3c2C#N)ccn1` [Example I-21, (S)—N-(4-((2-((5-(tert-butyl)-1-(tetrahydrofuran-3-yl)-1H-pyrazol-3-yl)amino)-7-cyano-1-methyl-1H-benzo[d]imidazol-6-yl)oxy)pyridin-2-yl)acetamide]: below 10 nM.
Next, `CC(=O)Nc1cc(Oc2ccc3nc(Nc4cc(C(C)(C)C)on4)n(C)c3c2)ccn1` [Example I-1, N-(4-((2-((5-(tert-butyl)isoxazol-3-yl)amino)-1-methyl-1H-benzo[d]imidazol-6-yl)oxy)pyridin-2-yl)acetamide]: below 10 nM.
